# Measurements from patent publication US11129840B2, “Methods for identifying novel dosing regimens” (Zavante Therapeutics, Inc., priority 2017, dated 2021).
# Tested on: K. pneumoniae (KPC-producer) isolate
# Assay: Time-kill kinetic analysis
# Assay type: cell-based, Klebsiella pneumoniae
# Conditions: ¼ and 1×MIC
# Procedure: TKK were sampled for colony counts at T0, T2, T4, T8 and T24 hours (h). Two Klebsiella pneumoniae isolates (one KPC and one ESBL), two Pseudomonas aeruginosa isolates (non-MDR), and one Acinetobacter baumannii isolate (MDR) were tested.
substance,measurement,value
Piperacillin-tazobactam [PTZ],inhibitory activity,little inhibitory activity
